Values of other authors, collected in patent US12440567B2, “Aqueous antibody formulation stabilized by antioxidants for parenteral administration” (AMGEN INC., priority 2007, dated 2025).

Conditions: cited from earlier work

Question: For catechin, which solubility is on record?
Answer: The solubility was “limited solubility”.
